Columns and labels:
ETA receptor = biological target: T1, ETA receptor (Sus scrofa, UniProt Q29010); conditions: against 30 pM [125I]ET-1 with 1 nM unlabeled ET-3, porcine lung membrane, 37°C, 1 h
T1 sequence (Q29010 21-427): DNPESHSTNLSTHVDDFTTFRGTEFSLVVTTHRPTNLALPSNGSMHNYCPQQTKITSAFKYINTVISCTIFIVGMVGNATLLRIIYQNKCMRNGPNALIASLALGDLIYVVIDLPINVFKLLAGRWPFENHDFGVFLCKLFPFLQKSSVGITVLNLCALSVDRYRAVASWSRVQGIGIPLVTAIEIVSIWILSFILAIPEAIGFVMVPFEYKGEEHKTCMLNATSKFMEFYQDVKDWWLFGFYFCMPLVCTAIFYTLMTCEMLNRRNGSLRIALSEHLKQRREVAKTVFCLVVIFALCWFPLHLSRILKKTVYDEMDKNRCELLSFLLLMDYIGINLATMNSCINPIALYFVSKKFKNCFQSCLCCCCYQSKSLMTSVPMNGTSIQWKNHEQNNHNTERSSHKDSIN

ETB receptor = biological target: T2, ETB receptor (Sus scrofa, UniProt P35463); assay: Inhibition of [125I]ET-3 binding to porcine lung membranes; conditions: against 10 pM [125I]ET-3, porcine lung membrane, 37°C, 1 h
T2 sequence (P35463 27-443): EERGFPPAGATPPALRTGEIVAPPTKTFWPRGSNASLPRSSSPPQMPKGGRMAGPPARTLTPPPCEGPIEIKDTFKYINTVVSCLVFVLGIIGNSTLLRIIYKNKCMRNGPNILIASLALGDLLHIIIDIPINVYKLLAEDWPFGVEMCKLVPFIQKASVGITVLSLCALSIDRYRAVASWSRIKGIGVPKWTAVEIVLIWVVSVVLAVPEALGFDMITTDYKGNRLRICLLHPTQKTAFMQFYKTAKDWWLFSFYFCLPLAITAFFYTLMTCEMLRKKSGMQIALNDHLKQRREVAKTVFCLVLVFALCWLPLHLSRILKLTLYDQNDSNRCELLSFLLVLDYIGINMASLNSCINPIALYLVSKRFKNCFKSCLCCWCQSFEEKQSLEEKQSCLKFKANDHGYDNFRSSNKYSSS

Work on `CC[C@H](C)[C@H](NC(=O)[C@H](CC(=O)O)NC(=O)[C@H](CC(C)C)NC(=O)[C@H](Cc1c[nH]cn1)NC(=O)[C@@H]1CSSC[C@H](N)C(=O)N[C@@H]([C@@H](C)O)C(=O)N[C@H]2CSSC[C@H](NC(=O)[C@H](CCC(=O)O)NC(=O)[C@H](CCCCN)NC(=O)[C@H](CC(=O)O)NC(=O)[C@H](CCCCN)NC(=O)[C@H](Cc3ccc(O)cc3)NC(=O)[C@H]([C@@H](C)O)NC(=O)[C@H](Cc3ccccc3)NC2=O)C(=O)N[C@@H](C(C)C)C(=O)N[C@@H](Cc2ccc(O)cc2)C(=O)N[C@@H](Cc2ccc(O)cc2)C(=O)N1)C(=O)N[C@H](C(=O)N[C@@H](Cc1c[nH]c2ccccc12)C(=O)O)[C@@H](C)CC` [ET-3, endothelin-3] yielded a Ki (ETA receptor) of 15 nM and a Ki (ETB receptor) of 0.008 nM.

Reference: patent publication EP0548441A1, “Endothelin antagonists” (Japat Ltd, priority 1991, dated 1993)
